The values below come from patent US6869968B1, “2-(3H)-oxazolone derivatives and their use as COX-2 inhibitors” (Allmirall Prodesfarma S.A., priority 1996, dated 2005).

Sequences of proteins named here, by UniProt entry; tags and fusion partners are left off. Residues count along the entry.
UniProt P23219, 24-599 limits assumed: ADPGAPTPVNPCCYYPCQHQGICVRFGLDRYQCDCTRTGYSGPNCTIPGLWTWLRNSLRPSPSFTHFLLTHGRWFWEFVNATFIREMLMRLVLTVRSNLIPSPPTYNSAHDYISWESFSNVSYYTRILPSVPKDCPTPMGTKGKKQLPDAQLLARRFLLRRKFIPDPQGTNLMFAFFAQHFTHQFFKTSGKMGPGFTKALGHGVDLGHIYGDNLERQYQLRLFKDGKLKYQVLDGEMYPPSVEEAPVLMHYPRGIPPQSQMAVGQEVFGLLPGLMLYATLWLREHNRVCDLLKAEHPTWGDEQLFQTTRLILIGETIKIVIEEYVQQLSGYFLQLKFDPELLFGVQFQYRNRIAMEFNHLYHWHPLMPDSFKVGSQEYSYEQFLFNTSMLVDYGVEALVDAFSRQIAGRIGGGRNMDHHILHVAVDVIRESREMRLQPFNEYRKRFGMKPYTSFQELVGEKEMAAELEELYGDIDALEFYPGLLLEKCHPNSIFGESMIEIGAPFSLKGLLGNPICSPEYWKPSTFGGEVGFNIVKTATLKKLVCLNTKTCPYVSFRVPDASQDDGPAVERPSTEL
UniProt P35354, 18-604 limits assumed: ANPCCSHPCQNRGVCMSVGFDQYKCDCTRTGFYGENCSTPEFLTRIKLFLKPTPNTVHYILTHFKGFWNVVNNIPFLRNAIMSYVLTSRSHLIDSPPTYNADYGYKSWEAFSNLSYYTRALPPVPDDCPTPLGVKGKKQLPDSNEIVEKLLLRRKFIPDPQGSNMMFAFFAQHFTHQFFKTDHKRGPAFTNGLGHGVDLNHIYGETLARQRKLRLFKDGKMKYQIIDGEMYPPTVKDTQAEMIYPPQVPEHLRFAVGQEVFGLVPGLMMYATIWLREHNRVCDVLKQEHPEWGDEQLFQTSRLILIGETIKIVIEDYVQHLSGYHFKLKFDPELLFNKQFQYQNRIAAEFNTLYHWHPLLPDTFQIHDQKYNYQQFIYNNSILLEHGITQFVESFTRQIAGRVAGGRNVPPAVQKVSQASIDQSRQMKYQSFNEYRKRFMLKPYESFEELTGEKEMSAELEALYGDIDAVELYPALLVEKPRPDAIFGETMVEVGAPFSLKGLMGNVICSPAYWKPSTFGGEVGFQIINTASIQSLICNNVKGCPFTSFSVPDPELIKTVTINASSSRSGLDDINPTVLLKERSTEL

One assay concerns the target Cyclooxygenase-1 (COX-1) (Homo sapiens, UniProt P23219). The assay can be described thus: Inhibition of cyclooxygenase-1 (COX-1) activity in human platelets (thromboxane B2 ELISA). The assay is classed as cell-based. To be noted: read-out: COX-1 (μM), results expressed as IC50 values, 50 μM arachidonic acid, mean of three independent experiments. For orientation: In an ELISA, binding on a coated surface is turned into a signal by an enzyme label.

For another assay, the target named is Cyclooxygenase-2 (COX-2) (Homo sapiens, UniProt P35354). In words: Inhibition of cyclooxygenase-2 (COX-2) activity in HUV-EC-C cell line (prostaglandin E2 ELISA). The assay is classed as cell-based. The settings on record: for Ratio COX-1:COX-2: ratio of IC50 COX-1 (platelets) to IC50 COX-2 (HUV-EC-C); for IC50: read-out: COX-2 (μM), results expressed as IC50 values, PMA/TPA-induced HUV-EC-C cells, 50 μM arachidonic acid, mean of three independent experiments.

In assay [1] the test system is adjuvant arthritis (Mycobacterium tuberculosis in paraffin oil, hind paw). The assay can be described thus: Anti-inflammatory activity (adjuvant arthritis), hind paw volume. The settings on record: 1 mg/kg p.o. once daily for 7 days (days 14-20), paw volume on day 21.

What is called IC50 is the concentration needed to halve the response being measured.

Consider `CS(=O)(=O)c1ccc(-c2coc(=O)n2-c2ccc(F)cc2F)cc1`, for which the half-inhibitory concentration (IC50) at Cyclooxygenase-1 (COX-1) is over 100 µM.

For the compound `CS(=O)(=O)c1ccc(-c2coc(=O)n2-c2ccc(Cl)c(Cl)c2)cc1`, on Cyclooxygenase-2 (COX-2), the “Ratio COX-1:COX-2” value stood at 3487 and the IC50 turned out to be 0.008 µM. On Cyclooxygenase-1 (COX-1), the IC50 worked out at 27.9 µM.

`NS(=O)(=O)c1ccc(-c2coc(=O)n2-c2ccc(Cl)cc2)cc1`: the IC50 at Cyclooxygenase-1 (COX-1) was 4.6 µM. The “% Inhibition (dose, mg/kg)” value in assay [1] is 62 (1) %.

For `CS(=O)(=O)c1ccc(-c2coc(=O)n2-c2ccc3ccccc3c2)cc1`, at Cyclooxygenase-2 (COX-2), the “Ratio COX-1:COX-2” value is listed as over 3333 and the half-inhibitory concentration (IC50) came to 0.03 µM. At Cyclooxygenase-1 (COX-1), the IC50 is over 100 µM.
